{
  "source": "patent US11376249B2",
  "about": "(priority 2017, dated 2022)",
  "conditions": "mice, plasma",
  "note": "Where two headings read alike, the source gives them in different places.",
  "data": [
    {"smiles": "O=C1CN2c3c(cccc3[C@@H]3CN(CCCOc4ccc(F)cc4)CC[C@@H]32)N1", "note": "[Example 3, (6bR,10aS)-8-(3-(4-fluorophenoxy)propyl)-6b,7,8,9,10,10a-hexahydro-1H-pyrido[3′,4′:4,5]pyrrolo[1,2,3-de]quinoxalin-2(3H)-one]", "values": [
      {"measurement": "Cmax", "setting": "PO 10 mg/kg", "value": 279, "unit": "ng/mL"},
      {"measurement": "Cmax", "setting": "SC 0.1 mg/kg", "value": 31.1, "unit": "ng/mL"}
    ]}
  ]
}
